The entries are a selection whose mix differs from that of the whole data set. Active and inactive are the calls of the source.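 The calls were made as follows: active = mean inhibition over three repeats above a set limit taken from the earlier primary screen (cut at about 38% in these data); inactive = the rest.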

Amino acid sequences for entries named in this document (tags omitted).
UniProt P24468, whole entry: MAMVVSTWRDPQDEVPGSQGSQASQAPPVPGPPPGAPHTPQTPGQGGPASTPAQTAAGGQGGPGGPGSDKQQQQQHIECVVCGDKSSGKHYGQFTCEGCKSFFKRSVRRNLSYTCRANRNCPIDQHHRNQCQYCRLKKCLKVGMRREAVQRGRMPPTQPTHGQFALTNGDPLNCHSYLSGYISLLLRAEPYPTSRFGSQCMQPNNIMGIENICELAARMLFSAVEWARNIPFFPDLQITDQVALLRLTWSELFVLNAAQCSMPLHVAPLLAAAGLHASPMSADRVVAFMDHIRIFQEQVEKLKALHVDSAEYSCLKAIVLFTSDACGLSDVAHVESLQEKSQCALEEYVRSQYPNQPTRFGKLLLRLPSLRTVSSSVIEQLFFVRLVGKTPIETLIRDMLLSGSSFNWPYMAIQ

This test concerns the target COUP transcription factor 2 (Homo sapiens) (UniProt P24468). Nature of the test: retest of COUP-TFII reporter suppressors – cell-based, luciferase reporter, HEK293, triplicate, confirmation (AID 687008).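 Also: 100% = cells given the luciferase reporter alone without the COUP-TF2 vector.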 Conditions: HEK293 NGFI-A luciferase reporter, luminescence; at 8.5 µM; active compounds read high.
A word on the inhibition: it is the change of the read-out against control, counted positive when it falls. On to `O=[N+]([O-])c1cc([N+](=O)[O-])c(Nc2ccc(Cl)cc2)c([N+](=O)[O-])c1`, for which the inhibition was inactive: 19.2%.

The values above are taken from PubChem BioAssay AID687008 (The Scripps Research Institute Molecular Screening Center, 2013).
